From patent US20240398963A1 (priority 2021, published 2024)

Type: physicochemical
Details: 10 mM PBS buffer (pH=7.4), 37° C., 100 rpm shaker; free drug by HPLC, average release per day
Protocol: The drug release and stability experiments were run using the test compounds. About 2.5±1.0 mg/mL (with regard to conjugate) solution of each test compound was prepared with 10 mM PBS buffer (pH=7.4) in Millipore Amicon® Ultra-0.5 ml 30 k Ultrafiltration centrifuge tube. The solution was kept swelling for 1 h at room temperature and then placed in a shaker at 100 rpm, 37° C. for continuous experiment. At the same time point of each day, samples were centrifuged at 10000 rpm for 1 h. The aliquot was transferred to HPLC vial for analysis. An 0.4 mL of 10 mM PBS buffer was added into the centrifuge tube and continue the experiment.
For the HPLC analysis at each time point, the peak areas of all relevant peaks from the chromatograms were retrieved and the concentration of free drug was calculated. Average release of free drug was calculated based on the sum of free drug and numbers of experiment days. The computing equation is as below.
The sample degradation rate was calculated based on the concentration and degree of substitution (NMR) for conjugated drug with regard to the initial starting point of the experiment (at t=0). The computing equation is as below.
“Conjugate of HA and 2-((6αS,6βR,7S,8αS,8βS,11αR,12αS,12βS)-6β-fluoro-7-hydroxy-6α,8α,10,10-tetramethyl-4-oxo-1,2,4,6α,6β,7,8,8α,11α,12,12α,12β-dodecahydro-8βH-naphtho[2′,1′:4,5]indeno[1,2-d][1,3]dioxol-8β-yl)-2-oxoethyl alaninate [Example 8]” showed a Release rate of 2.00 %/day. With “Conjugate of HA and 2-((6αS,6βR,7S,8αS,8βS,11αR,12αS,12βS)-6β-fluoro-7-hydroxy-6α,8α,10,10-tetramethyl-4-oxo-1,2,4,6α,6β,7,8,8α,11α,12,12α,12β-dodecahydro-8βH-naphtho[2′,1′:4,5]indeno[1,2-d][1,3]dioxol-8β-yl)-2-oxoethyl 3-aminopropanoate [Example 5]” the Release rate was 4.03 %/day. For “Conjugate of HA and 2-((6αS,6βR,7S,8αS,8βS,11αR,12αS,12βS)-6β-fluoro-7-hydroxy-6α,8α,10,10-tetramethyl-4-oxo-1,2,4,6α,6β,7,8,8α,11α,12,12α,12β-dodecahydro-8βH-naphtho[2′,1′:4,5]indeno[1,2-d][1,3]dioxol-8β-yl)-2-oxoethyl azetidine-3-carboxylate [Example 7]”, the Release rate was 14.25 %/day. “Conjugate of HA and 5-aminopentyl (2-((2S,6αS,6βR,7S,8αS,8βS,11αR,12αS,12βS)-2,6β-difluoro-7-hydroxy-6α,8α,10,10-tetramethyl-4-oxo-1,2,4,6α,6β,7,8,8α,11α,12,12α,12β-dodecahydro-8βH-naphtho[2′,1′:4,5]indeno[1,2-d][1,3]dioxol-8β-yl)-2-oxoethyl) carbonate [Example 25]” showed a Release rate of 1.69 %/day. “Conjugate of HA and 6-aminohexyl (2-((2S,6αS,6βR,7S,8αS,8βS,11αR,12αS,12βS)-2,6β-difluoro-7-hydroxy-6α,8α,10,10-tetramethyl-4-oxo-1,2,4,6α,6β,7,8,8α,11α,12,12α,12β-dodecahydro-8βH-naphtho[2′,1′:4,5]indeno[1,2-d][1,3]dioxol-8β-yl)-2-oxoethyl) carbonate [Example 26]” gave a Release rate of 0.63 %/day. In the case of “Conjugate of HA and 4-aminobutyl (2-((6αS,6βR,7S,8αS,8βS,11αR,12αS,12βS)-6β-fluoro-7-hydroxy-6α,8α,10,10-tetramethyl-4-oxo-1,2,4,6α,6β,7,8,8α,11α,12,12α,12β-dodecahydro-8βH-naphtho[2′,1′:4,5]indeno[1,2-d][1,3]dioxol-8β-yl)-2-oxoethyl) carbonate [Example 3]”, the Release rate is reported as 0.25 %/day. For “Conjugate of HA and 2-((2S,6αS,6βR,7S,8αS,8βS,11αR,12αS,12βS)-2,6β-difluoro-7-hydroxy-6α,8α,10,10-tetramethyl-4-oxo-1,2,4,6α,6β,7,8,8α,11α,12,12α,12β-dodecahydro-8βH-naphtho[2′,1′:4,5]indeno[1,2-d][1,3]dioxol-8β-yl)-2-oxoethyl 4-(aminomethyl)benzoate [Example 22]”, the Release rate was 0.40 %/day. Work on “Conjugate of HA and 2-((6αS,6βR,7S,8αS,8βS,11αR,12αS,12βS)-6β-fluoro-7-hydroxy-6α,8α,10,10-tetramethyl-4-oxo-1,2,4,6α,6β,7,8,8α,11α,12,12α,12β-dodecahydro-8βH-naphtho[2′,1′:4,5]indeno[1,2-d][1,3]dioxol-8β-yl)-2-oxoethyl 5-aminopentanoate [Example 18]” yielded a Release rate of 0.90 %/day. “Conjugate of HA and 2-((6αS,6βR,7S,8αS,8βS,11αR,12αS,12βS)-6β-fluoro-7-hydroxy-6α,8α,10,10-tetramethyl-4-oxo-1,2,4,6α,6β,7,8,8α,11α,12,12α,12βb-dodecahydro-8βH-naphtho[2′,1′:4,5]indeno[1,2-d][1,3]dioxol-8β-yl)-2-oxoethyl 3-aminocyclobutane-1-carboxylate [Example 11]” showed a Release rate of 3.53 %/day. Substance “Conjugate of HA and 2-((6αS,6βR,7S,8αS,8βS,11αR,12αS,12βS)-6β-fluoro-7-hydroxy-6α,8α,10,10-tetramethyl-4-oxo-1,2,4,6α,6β,7,8,8α,11α,12,12α,12β-dodecahydro-8βH-naphtho[2′,1′:4,5]indeno[1,2-d][1,3]dioxol-8β-yl)-2-oxoethyl 8-aminooctanoate [Example 9]” has a Release rate of 0.22 %/day. Substance “Conjugate of HA and 2-((8S,9S,10R,13S,14S,17R)-17-hydroxy-10,13-dimethyl-3,11-dioxo-6,7,8,9,10,11,12,13,14,15,16,17-dodecahydro-3H-cyclopenta[a]phenanthren-17-yl)-2-oxoethyl 4-aminobutanoate [Example 34]” has a Release rate of 3.01 %/day. “Conjugate of HA and 2-((6αS,6βR,7S,8αS,8βS,11αR,12αS,12βS)-6β-fluoro-7-hydroxy-6α,8α,10,10-tetramethyl-4-oxo-1,2,4,6α,6β,7,8,8α,11α,12,12α,12β-dodecahydro-8βH-naphtho[2′,1′:4,5]indeno[1,2-d][1,3]dioxol-8β-yl)-2-oxoethyl (2-aminoethyl)carbamate [Example 14]” showed a Release rate of 0.01 %/day. Work on “Conjugate of HA and 2-((6αS,6βR,7S,8αS,8βS,11αR,12αS,12βS)-6β-fluoro-7-hydroxy-6α,8α,10,10-tetramethyl-4-oxo-1,2,4,6α,6β,7,8,8α,11α,12,12α,12β-dodecahydro-8βH-naphtho[2′,1′:4,5]indeno[1,2-d][1,3]dioxol-8β-yl)-2-oxoethyl (7-azaspiro[3.5]nonan-2-yl) carbonate [Example 31]” yielded a Release rate of 1.10 %/day. “Conjugate of HA and 6-aminohexyl (2-((6αS,6βR,7S,8αS,8βS,11αR,12αS,12βS)-6β-fluoro-7-hydroxy-6α,8α,10,10-tetramethyl-4-oxo-1,2,4,6α,6β,7,8,8α,11α,12,12α,12β-dodecahydro-8βH-naphtho[2′,1′:4,5]indeno[1,2-d][1,3]dioxol-8β-yl)-2-oxoethyl) carbonate [Example 27]” showed a Release rate of 0.34 %/day. “Conjugate of HA and 2-((6αS,6βR,7S,8αS,8βS,11αR,12αS,12βS)-6β-fluoro-7-hydroxy-6α,8α,10,10-tetramethyl-4-oxo-1,2,4,6α,6β,7,8,8α,11α,12,12α,12β-dodecahydro-8βH-naphtho[2′,1′:4,5]indeno[1,2-d][1,3]dioxol-8β-yl)-2-oxoethyl pyrrolidin-3-yl carbonate [Example 16]” showed a Release rate of 1.46 %/day. With “Conjugate of HA and 2-((2S,6αS,6βR,7S,8αS,8βS,11αR,12αS,12βS)-2,6β-difluoro-7-hydroxy-6α,8α,10,10-tetramethyl-4-oxo-1,2,4,6α,6β,7,8,8α,11α,12,12α,12β-dodecahydro-8βH-naphtho[2′,1′:4,5]indeno[1,2-d][1,3]dioxol-8β-yl)-2-oxoethyl 3-aminopropanoate [Example 12]” the Release rate was 3.30 %/day. Work on “Conjugate of CS and 2-((8S,9S,10R,11S,13S,14S,17R)-11,17-dihydroxy-10,13-dimethyl-3-oxo-6,7,8,9,10,11,12,13,14,15,16,17-dodecahydro-3H-cyclopenta[a]phenanthren-17-yl)-2-oxoethyl 4-aminobutanoate [Example 37]” yielded a Release rate of 1.17 %/day. Work on “Conjugate of HA and 2-aminoethyl (2-((6αS,6βR,7S,8αS,8βS,11αR,12αS,12βS)-6β-fluoro-7-hydroxy-6α,8α,10,10-tetramethyl-4-oxo-1,2,4,6α,6β,7,8,8α,11α,12,12α,12β-dodecahydro-8βH-naphtho[2′,1′:4,5]indeno[1,2-d][1,3]dioxol-8β-yl)-2-oxoethyl) carbonate [Example 17]” yielded a Release rate of 2.19 %/day. “Conjugate of HA and 5-aminopentyl (2-((8S,9R,10S,11S,13S,14S,16S,17R)-9-fluoro-11,17-dihydroxy-10,13,16-trimethyl-3-oxo-6,7,8,9,10,11,12,13,14,15,16,17-dodecahydro-3H-cyclopenta[a]phenanthren-17-yl)-2-oxoethyl) carbonate [Example 88]” showed a Release rate of 3.19 %/day. In the case of “Conjugate of HA and 2-((6αS,6βR,7S,8αS,8βS,11αR,12αS,12βS)-6β-fluoro-7-hydroxy-6α,8α,10,10-tetramethyl-4-oxo-1,2,4,6α,6β,7,8,8α,11α,12,12α,12β-dodecahydro-8βH-naphtho[2′,1′:4,5]indeno[1,2-d][1,3]dioxol-8β-yl)-2-oxoethyl glycinate [Example 1]”, the Release rate is reported as 14.04 %/day. Work on “Conjugate of HA and 2-((6αS,6βR,7S,8αS,8βS,11αR,12αS,12βS)-6β-fluoro-7-hydroxy-6α,8α,10,10-tetramethyl-4-oxo-1,2,4,6α,6β,7,8,8α,11α,12,12α,12β-dodecahydro-8βH-naphtho[2′,1′:4,5]indeno[1,2-d][1,3]dioxol-8β-yl)-2-oxoethyl pyrrolidine-3-carboxylate [Example 6]” yielded a Release rate of 2.34 %/day. Work on “Conjugate of HA and 2-((6αS,6βR,7S,8αS,8βS,11αR,12αS,12βS)-6β-fluoro-7-hydroxy-6α,8α,10,10-tetramethyl-4-oxo-1,2,4,6α,6β,7,8,8α,11α,12,12α,12β-dodecahydro-8βH-naphtho[2′,1′:4,5]indeno[1,2-d][1,3]dioxol-8β-yl)-2-oxoethyl piperidine-4-carboxylate [Example 10]” yielded a Release rate of 0.83 %/day. Substance “Conjugate of HA and 2-((6αS,6βR,7S,8αS,8βS,11αR,12αS,12βS)-6β-fluoro-7-hydroxy-6α,8α,10,10-tetramethyl-4-oxo-1,2,4,6α,6β,7,8,8α,11α,12,12α,12β-dodecahydro-8βH-naphtho[2′,1′:4,5]indeno[1,2-d][1,3]dioxol-8β-yl)-2-oxoethyl 4-(aminomethyl)benzoate [Example 13]” has a Release rate of 0.14 %/day.
